# In patent US20260144239A1, “Immune Cell-Engrafted Non-Human Animals and Non-Human Animal Models” (LAPIX Therapeutics, Inc., priority 2022, published 2026):
# What was measured:
# humans = conditions: in vivo; cited from earlier work
# engrafted mice = assay: Immunogenicity in engrafted mice (NRGS mice with human immune system), antibody titers by ELISA; type: in vivo, mouse; conditions: antigen Day 29 and Day 36, blood Day 43
# Method: (§1) Three healthy human donors were used to generate three engrafted mice designated HD1, HD2 and HD3. On Day 29 and Day 36, HD1, HD2 and HD3 were administered FVIII. The same amounts of antigen were administered to three C57B/6 control mice on the same date. Two weeks later (on Day 43), blood from each mouse was collected. Titers of mouse anti-FVIII antibodies, human anti-FVIII antibodies, mouse anti-GAA antibodies and human anti-GAA antibodies were measured using ELISA (FIGS. 8A-8B).
# as §1, with “GAA.” for “FVIII.”, “anti-GAA” for “anti-FVIII”, “anti-FVIII” for “anti-GAA”, “8C-8D).” for “8A-8B).”
# (§2) Healthy human donors were used to generate eight engrafted mice. On Day 29 and Day 36, the engrafted mice were administered IFN-β. […] Titers of mouse anti-IFN-β antibodies and human anti-IFN-β antibodies were measured using ELISA.
# (§3) Healthy human donors were used to generate 11 engrafted mice. […] Titers of mouse anti-AAV9 antibodies and human anti-AAV9 antibodies were measured using ELISA.
# C57B/6 control mice = assay: Immunogenicity in C57B/6 control mice, antibody titers by ELISA; type: in vivo, mouse; conditions: six (FVIII), 5 (GAA), three (IFN-β), three (AAV9) C57B/6 mice
# Method: as §1
# as §1, with “GAA.” for “FVIII.”, “anti-GAA” for “anti-FVIII”, “anti-FVIII” for “anti-GAA”, “8C-8D).” for “8A-8B).”
# as §2, §3
substance,measurement,setting,value
IFN-β: biologic antigen administered to engrafted and C57B/6 mice,clinically reported immunogenicity rate in humans,humans,28-47%
same,percent of engrafted mice that developed human antibodies to the administered antigen,"engrafted mice; 12 (FVIII), 14 (GAA), eight (IFN-β), 11 (AAV9) engrafted mice",25%
same,engrafted mice that developed mouse antibodies to the administered antigen,engrafted mice,None
same,percent of C57B/6 mice that developed mouse antibodies to the administered antigen,C57B/6 control mice,100%
